The record followed here is US20100160411A1, “BENZOXATHIINE AND BENZOXATHIOLE DERIVATIVES AND USES THEREOF” (Wyeth, priority 2006, published 2010).

Chains of the proteins cited; added tags and fusions are not shown. Residues count along the entry.
UniProt P28335, 33-458: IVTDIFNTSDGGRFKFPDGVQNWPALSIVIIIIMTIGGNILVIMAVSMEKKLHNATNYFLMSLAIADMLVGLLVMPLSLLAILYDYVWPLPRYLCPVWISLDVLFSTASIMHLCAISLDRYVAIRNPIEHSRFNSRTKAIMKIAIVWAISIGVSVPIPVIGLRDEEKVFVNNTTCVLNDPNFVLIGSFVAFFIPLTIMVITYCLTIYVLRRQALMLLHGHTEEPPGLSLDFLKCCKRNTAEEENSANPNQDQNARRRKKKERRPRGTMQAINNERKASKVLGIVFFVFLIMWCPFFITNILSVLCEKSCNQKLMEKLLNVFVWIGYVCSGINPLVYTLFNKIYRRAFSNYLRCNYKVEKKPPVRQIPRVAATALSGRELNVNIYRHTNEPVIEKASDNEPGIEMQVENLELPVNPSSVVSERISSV

Assay [1] addresses T1, human 5-hydroxytryptamine-2C (h5-HT2C) receptor (Homo sapiens, UniProt P28335).
T1 construct: expressed in transfected cells; host or cells: CHO (Chinese Hamster Ovary) cells; membrane preparation
Put plainly: [125I]DOI binding to membranes of CHO cells expressing the h5-HT2C receptor. The note with it: reference compounds; 95% confidence interval in parentheses; [125I]DOI radioligand, CHO cell membranes.

The target of a further assay is human 5-HT2C receptor (Homo sapiens, UniProt P28335). Put plainly: calcium mobilization (FLIPR) in CHO cells stably expressing the human 5-HT2C receptor. The class given is cell-based. To be noted: reference compounds, Fluo-3-AM. In general terms: A change in cytosolic calcium serves as a functional read-out for many receptors and channels.

“1-(2,5-dimethoxy-4-iodophenyl)isopropylamine [DOI]”: in assay [1], the inhibition constant Ki was 6.2 nM. In addition, the concentration for a half-maximal effect (EC50) on human 5-HT2C receptor amounted to 0.5 nM.

A word on the Ki: it is a measure of affinity in units of concentration, obtained from inhibition or displacement. For orientation: EC50 means the concentration needed to bring the measured effect to its halfway point.
